Only a part is listed here, and it is no random draw. Records with an inconclusive call do not appear. Active and inactive are the calls of the source. Calls come from the whole dose curve; as a rule, active = well fitted inhibition curve with a large enough effect; inconclusive = small, poorly fitted or top-dose-only effect; inactive = flat fitted curve, though single readings scatter.

In PubChem BioAssay AID1508639 (National Center for Advancing Translational Sciences (NCATS), 2021) one finds activity change, negative = inhibition data, which are given here for 1 compound.

The test system of this assay is NanoLuc luciferase (engineered Oplophorus gracilirostris luciferase). In words: Biochemical coelenterazine-based NLuc counterscreen for small molecule modulators of PMP22 gene expression - Km assay.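 Note: substrate at 15 µM coelenterazine with 5 min compound preincubation before enzyme addition.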 The note with it: secreted NLuc enzyme, coelenterazine luminescence, Km conditions; at 57.5 µM (top of the series). The text has this: Assay Provider: Jim Inglese Ph.D. National Center for Advancing Translational Science, National Institutes of Health, Rockville, MD CMT is a heterogeneous group of neurological disorders that affect approximately 1 in 2,500 people. In particular, the most common form of CMT, CMT1A is genetically linked to the duplication of the PMP22 gene which leads to Schwann cell overexpression, thus manifesting itself as a typical case of dose-sensitive diseases. […] We can further discriminate the effect of all transcriptionally active molecules on PMP22 translation or stability with an assay that incorporates a short NLuc peptide (HiBiT) at the C-terminus of expressed PMP22 (S16(f8) PMP22-HiBiT) allowing alpha complementation and luminescence detection of membrane-associated PMP22 protein. […] Miniaturization of these assays to 1536-well plate format for quantitative high throughput screening (qHTS) yielded rich data sets immediately from the qHTS assay (S16(c9) Pmp22-F2sN), when compared with data from a cell viability assay (Cell TiterGlo) to identify compounds that decreased the output signals through cellular toxicity to streamline the selection process of actives for subsequent characterization using the HiBiT assay (S16(f8) PMP22-HiBiT). […]
% is set by controls: 0 for no effect and ±100 for the full control effect.

Consider `CC(C)(C)c1ccc(C(=O)NCC2(N3CCOCC3)CCCCC2)cc1`, for which the activity change, negative = inhibition was inactive: 1.38%.
